According to patent US20220402961A1, “NICOTINAMIDE MONONUCLEOTIDE-ISONICOTINE COCRYSTAL AND COMPOSITION THEREOF” (BONTAC BIO-ENGINEERING(SHENZHEN) CO.,LTD, priority 2021, published 2022):

Tests used:
[1] = screened with a sieve (1.00 mm, No. 18), poured into glass graduated measuring cylinder, apparent volume
Experimental: The tops were scraped flat. The apparent volumes were recorded. The bulk densities were calculated.

[2] = crystal screened with 200-mesh sieve, filled into capsules; average of absolute content difference values of each capsule vs average content

Row | Substance | Bulk density [1] | Average content difference [2]
1 | nicotinamide mononucleotide dimethyl sulfoxide solvate crystal (form 2) | 0.22 g/mL | –
2 | nicotinamide mononucleotide-isonicotine cocrystal [Cocrystal in example 1] | 0.68 g/mL | 5.5%
